Drawing on US5559113A, “Imidazole compounds and their therapeutic applications” (Institut National de la Sante et de la Recherche Medicale, priority 1992, dated 1996), this text covers Ki for 1 compound.

Chains of the proteins cited; added tags and fusions are not shown. Lines headed by an entry give the natural chain unless they say otherwise; changes in a name come on top.
UniProt Q9QYN8: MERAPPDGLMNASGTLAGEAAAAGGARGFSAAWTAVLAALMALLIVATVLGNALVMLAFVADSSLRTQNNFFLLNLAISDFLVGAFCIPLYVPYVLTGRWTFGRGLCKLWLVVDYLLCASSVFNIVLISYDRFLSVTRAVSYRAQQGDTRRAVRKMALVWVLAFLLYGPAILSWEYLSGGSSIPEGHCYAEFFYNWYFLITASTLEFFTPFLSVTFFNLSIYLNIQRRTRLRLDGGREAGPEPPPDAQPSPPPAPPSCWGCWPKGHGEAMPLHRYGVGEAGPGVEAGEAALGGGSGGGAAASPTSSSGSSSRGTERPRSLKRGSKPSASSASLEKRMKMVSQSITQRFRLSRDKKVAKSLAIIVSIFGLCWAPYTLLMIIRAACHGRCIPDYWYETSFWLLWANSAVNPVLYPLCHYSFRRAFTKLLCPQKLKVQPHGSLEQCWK

The target of this assay is T1, H3 receptors of the brain of the rat (Rattus norvegicus, UniProt Q9QYN8).
T1 construct: This method requires rat cerebral cortex sections; from tissue; host or cells: rat cerebral cortex sections
Nature of the assay: Antagonism of the inhibition by exogenous histamine of release in rat cerebral cortex sections (central H3 receptors). In kind it is cell-based. The note with it: read-out: Apparent dissociation constant (Ki) as antagonist of histamine on the H3 receptors of the brain of the rat, exogenous histamine 1 μM, Ki calculated from IC50 according to Cheng and Prusoff. An excerpt: This method requires rat cerebral cortex sections and has made possible the pharmacological characterization of the H3 receptors (Nature, 1987, 327, 117-123).

pKi: −log10 of the molar value.

For orientation: pKi means the negative decadic logarithm of the Ki, by convention in mol/L. On to `O=C(Nc1cccc([N+](=O)[O-])c1)OCCCc1c[nH]cn1` [Example 69, 3-(1H-Imidazol-4-yl)propyl N-(3-nitrophenyl)carbamate], for which the pKi was 7.66.
